Test: Water solubility of the peptides
Type: physicochemical

Substance: Ac-Ala Glu Ile Cys Leu Leu Pro Leu Asp Tyr Gly Pro Cys Arg [Peptide 6-Ac]
- water solubility compared to non-acetylated counterpart: more water soluble than their corresponding non acetylated counterparts
